What was measured:
[1] = test system: B16 melanoma; experiment: Transplanted B16 melanoma in mice, tumor inhibition; assay type: in vivo, C57 mice; conditions: Table 13: Carboplatin 4 mg/kg i.p, Algal proteoglycan 60 mg/kg p.o, alone or combined, once a day for seven days
Experimental: Female C57 mice (18-22 g) and well-grown B16 melanoma on 7-11 days were used. The tumor tissue was made into cell suspension. […] Algal proteoglycan extract was administered orally, and carboplatin, doxorubicin or CTX were administered intraperitoneally, once a day. […] The blank control group was given normal saline (NS). […] The tumors were excised and weighed. The average tumor weight was calculated for each group.
(§1) A=average tumor weight (g) of blank control group,
B =average tumor weight (g) of therapeutic group

[2] = test system: S-180 sarcoma; experiment: Transplanted S-180 sarcoma in mice, tumor inhibition; conditions: Table 16: Carboplatin 4 mg/kg i.p, Algal proteoglycan 20 mg/kg p.o, alone or combined, once a day for seven days
Experimental: Tumors, including B-16 melanoma and S-180 sarcoma, were provided by Shanghai Institute of Materia Medica of the Chinese Academy of Sciences.
The tumor tissue was made into cell suspension. The mice were inoculated subcutaneously in the right axilla with the cell suspension, about 4.5-5×10^6 cells/mouse. After 24 hours, the mice were randomly divided into different groups and housed in separate cages (n=6). […] The administration began on the second day and lasted for seven days, with different doses. The blank control group was given normal saline (NS). The animals were sacrificed and weighed (g body weight) 24 hours after drug withdrawal. The tumors were excised and weighed. The average tumor weight was calculated for each group. According to the following formula, the tumor inhibition rate was calculated and T test was conducted.
According to the formula below, the tumor inhibition rate was calculated and T test was conducted.
as §1
B=average tumor weight (g) of therapeutic group

For `N.N.O=C([O-])C1(C(=O)[O-])CCC1.[Pt+2]` [Carboplatin], the “Body Weight (g) in the End” value [1] was 23.2 g and the “Body Weight (g) in the Beginning” value [2] was 18.6 g.
